Experimental data: ChEMBL document CHEMBL3044855, “In vitro reactivation of organophosphorus (OP)-inhibited electric eel acetylcholinesterase by novel monoquaternary pyridinium oximes” (2013)

Assay: Dissociation constant, pKa of the compound

CCCCCCCOC[n+]1cccc(/C=N/O)c1.[Cl-]
pKa: 9.24

CCCCCCCCCCCOC[n+]1cccc(/C=N/O)c1.[Cl-]
pKa: 9.23

CCCCCCCCCOC[n+]1ccc(/C=N/O)cc1.[Cl-]
pKa: 8.15

CCCCCCOC[n+]1cccc(/C=N/O)c1.[Cl-]
pKa: 9.27

CCCCCCCCOC[n+]1cccc(/C=N/O)c1.[Cl-]
pKa: 9.25

CCCCCCCCCCCCOC[n+]1ccc(/C=N/O)cc1.[Cl-]
pKa: 8.23

CCCCCCCCCOC[n+]1cccc(/C=N/O)c1.[Cl-]
pKa: 9.41

O/N=C/c1ccc[n+](COCc2ccccc2)c1.[Cl-]
pKa: 9.25

CCCCCCCCOC[n+]1ccc(/C=N/O)cc1.[Cl-]
pKa: 8.21

CCCCCCCCCCOC[n+]1cccc(/C=N/O)c1.[Cl-]
pKa: 9.25

CCCCCCCCCCCCOC[n+]1cccc(/C=N/O)c1.[Cl-]
pKa: 9.17

Cc1ccc(COC[n+]2ccc(/C=N/O)cc2)cc1.[Cl-]
pKa: 8.23

CCCCCCCCCCCOC[n+]1ccc(/C=N/O)cc1.[Cl-]
pKa: 8.2

CCCCCCOC[n+]1ccc(/C=N/O)cc1.[Cl-]
pKa: 8.2

Cc1ccc(COC[n+]2cccc(/C=N/O)c2)cc1.[Cl-]
pKa: 9.14

O/N=C/c1cc[n+](COCc2ccccc2)cc1.[Cl-]
pKa: 8.25

CCCCCCCOC[n+]1ccc(/C=N/O)cc1.[Cl-]
pKa: 8.22

CCCCCCCCCCOC[n+]1ccc(/C=N/O)cc1.[Cl-]
pKa: 8.17
